This note sets out measurements from CN114621354A.

For experiment [1], the target named is TNF-α (human) (UniProt P01375). The experiment in a line: indirect ELISA on coated TNF-α. In general terms: In an ELISA, binding on a coated surface is turned into a signal by an enzyme label.
Experiment [2] concerns the target TNF-α (human) (UniProt P01375). The experiment in a line: BLI (BLItz), biotinylated binder on streptavidin sensor, TNF-α in solution, 1:1 model.

As a reminder, the EC50 is the concentration at which the effect is half-maximal. The low end stands for greater potency, the high end for weaker potency. The Kd is the free concentration of one partner at which half of the binding sites on the other are occupied at equilibrium, for simple one-to-one binding. Low values mean a tighter complex, high ones a looser complex. By koff is commonly meant the first-order rate constant of dissociation. The low end stands for slow dissociation, the high end for fast dissociation. Broadly, the kon is the second-order rate constant of association. Higher therefore signals faster complex formation. In turn, “Ada-Fab (Fab; other documents disagree on this pair)” registered an EC50 in experiment [1] of 1.37 nM. In experiment [2], this substance came in with a Kd of 0.525 nM, a koff of 0.000269 s⁻¹ and an on-rate constant (kon) of 512000 M⁻¹ s⁻¹.

For the substance “Adalimumab((Fab)2-Fc) (antibody; other documents disagree on this pair)”, the EC50 in experiment [1] is 0.515 nM. In experiment [2], the Kd came to 0.325 nM, the koff was 0.000101 s⁻¹ and the on-rate (kon) was found to be 311000 M⁻¹ s⁻¹.

In experiment [1], “Fab-ABD094 (Fab; other documents disagree on this pair)” had an EC50 of 1.52 nM. In experiment [2], this substance showed a Kd of 0.612 nM, an off-rate constant (koff) of 0.000334 s⁻¹ and a kon of 546000 M⁻¹ s⁻¹.

“Fab-ABDwt (Fab; other documents disagree on this pair)”: the EC50 in experiment [1] worked out at 1.49 nM. In experiment [2], this substance had a dissociation constant (Kd) of 0.225 nM, a koff of 0.000155 s⁻¹ and a kon of 686000 M⁻¹ s⁻¹.
